Experiments:
MCF-7 cells = assay: cells; details: Homo sapiens, MCF7, 144 h, read-out: MCF7 Proliferation IC50 (nM)
T47D cells = assay: cells; details: Homo sapiens, 144 h, read-out: T47D Proliferation IC50 (nM)

Which IC50 (MCF-7 cells) does the source give for `COc1cc(N2CCC(CN3CCN4c5cc6c(cc5OC[C@H]4C3)C(=O)N([C@@H]3CCC(=O)NC3=O)C6)CC2)ccc1[C@H]1c2ccc(O)cc2OC[C@H]1c1ccccc1` (single isomer, unassigned) [Compound A122] here?
Its IC50 is under 50 nM.

What about the IC50 (T47D cells) of the same molecule?
Its IC50 is under 50 nM.

Reference: patent publication US20260000676A1, “CHROMAN DERIVATIVES AS ESTROGEN RECEPTOR DEGRADERS” (THE REGENTS OF THE UNIVERSITY OF MICHIGAN, priority 2022, published 2026)
